## AlphaSeq binding of Ab-14 light chain variants to a spike HR2 peptide

Source: Engelhart et al. 2022 (doi:10.1038/s41597-022-01779-4), MIT Lincoln Laboratory and A-Alpha Bio; data file from the FLAb repository.

The target is the same throughout: PDVDLGDISGINAS, from the HR2 region of SARS-CoV-2 spike.

Parent: Ab-14, a human scFv built as VH, a (GGGGS)3 linker, VL. Only the CDRs of the light chain vary.
VH: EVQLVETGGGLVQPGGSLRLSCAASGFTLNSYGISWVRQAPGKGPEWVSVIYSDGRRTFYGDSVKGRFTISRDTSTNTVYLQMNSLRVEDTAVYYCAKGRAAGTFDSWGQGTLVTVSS
VL: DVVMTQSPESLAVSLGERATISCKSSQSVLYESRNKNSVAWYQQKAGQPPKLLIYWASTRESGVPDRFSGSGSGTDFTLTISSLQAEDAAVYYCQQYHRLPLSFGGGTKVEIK

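Phage display of a naive human antibody library on the peptide gave the parent. The library (AAYL50) carries one to three amino acid substitutions per variant, with no insertions or deletions. In AlphaSeq, yeast of one mating type display the scFv and yeast of the other type display the target. Mating (16 h, 30 °C) was followed by selection of diploids and sequencing of their barcodes. Each replicate has its own calibration line, from reference interactions of the BCL2 family. Each pool was mated in three replicate cultures.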

Each variant is given by its three light chain CDRs, as the data file delimits them; those of the parent are KSSQSVLYESRNKNSVA, WASTRES, QQYHRLPLS. All variants listed here change Q95 of the VL, counted from its first residue. Values are apparent Kd, the geometric mean of the replicates that gave a signal; lower means stronger binding. A pair that was not seen in any replicate is written "nd"; this usually means weak binding, but a binder can also be missed. As a blank, each scFv also met three strains without target: over library AAYL50, 18% of these pairings were detected, typically at 15 µM and seldom below 970 nM.

For KSSQSVLYESRNKNSVA / VASSRES / LQYHRLPLS, the assay gave 75 µM (1 of 3 replicates). Variant KSSQSVLYESRNKNSVA / WASTRES / HQYHRLPLS gave nd (0 of 3 replicates). For KSSQSVLYESRNKNKVA / HASTRES / GQYHRLPLS, the assay gave nd (0 of 3 replicates). With KSSQSVLYESRNKNSAA / WAITRES / DQYHRLPLS the result was nd (0 of 3 replicates). Variant KSRQSVLHESRNKNSVA / WASTRES / LQYHRLPLS gave 58 nM (3 of 3 replicates). Variant KSSQSVLYESRNKNSCA / WFSTRES / FQYHRLPLS showed 24 µM (2 of 3 replicates). Variant KSSQIVLYESRNKNSVA / WASTRES / KQYHALPLS gave nd (0 of 3 replicates).

Variant KSSQSVLYESRNKNSVA / WASTRES / SQYHMLPLW showed nd (0 of 3 replicates). With KSSQSVQYESRNKNSVA / WASTRES / AQYHRLPLS the result was 28 nM (3 of 3 replicates). With KSSQSVLYESRNKNSVA / WAKTRES / VQMHRLPLS the result was 3.2 µM (1 of 3 replicates). Variant KSSQSVLSESRNKNSVA / WASSRES / EQYHRLPLS showed 250 nM (3 of 3 replicates). For KSSQSVLYESRNKNSVA / WASTRES / VQYHKLPLM, the assay gave 110 µM (1 of 3 replicates). Variant KSSQSFLYESRNKNSVA / WASTRES / HQYHRLPPS gave nd (0 of 3 replicates). For RSSGSVLYESRNKNSVA / WASTRES / HQYHRLPLS, the assay gave 450 nM (3 of 3 replicates).

Variant KSMQSVLYESRNKNSVA / WASTRES / LQYHRLPLS gave nd (0 of 3 replicates). For KSSQSVMYESRNKNSVA / WASTREK / DQYHRLPLS, the assay gave nd (0 of 3 replicates). With KSSQSVLYESRNKNGVA / WASTRES / KQYHRLPLS the result was nd (0 of 3 replicates). Variant KSSQSVLYESRNKNSVA / WASTRES / TAYHRLPLS gave 96 nM (3 of 3 replicates). Variant KSSQSVLYEFRNCNSVA / WASTRES / PQYHRLPLS showed nd (0 of 3 replicates). For KSSQQVLHESRNKNSVA / WASTRES / VQYHRLPLS, the assay gave 19 nM (3 of 3 replicates). Variant KSSQSVLYEDRNKNSWA / WASTRES / PQYHRLPLS showed nd (0 of 3 replicates).

With KSSQSVLYRSRNKNSRA / WASTRES / WQYHRLPLS the result was nd (0 of 3 replicates). Variant KSSQSVLYESRNANSVA / WASTRES / EQYHRLPLM showed 5.7 nM (3 of 3 replicates). Variant KSWQSVLYESRNKLSVA / WASTRES / NQYHRLPLS gave nd (0 of 3 replicates). For KSSQSVLAESRNKNSVA / WASTRRS / CQYHRLPLS, the assay gave 69 nM (3 of 3 replicates). For KSSQSVLYEERNKRSVA / WASTRES / GQYHRLPLS, the assay gave nd (0 of 3 replicates). With KSSQSVLYESPNKNSVA / WASTRES / AQCHRLPLS the result was nd (0 of 3 replicates). Variant KSSQSVLYESKNKNSVD / WASTRES / NQYHRLPLS gave 73 µM (3 of 3 replicates).

For ASSQSVLYESRNKNSVA / WASTRES / EQYHRLPTS, the assay gave 53 nM (3 of 3 replicates). Variant YSSQSVLKESRNKNSVA / WASTRES / VQYHRLPLS gave nd (0 of 3 replicates). With KSSQSTLYTSRNKNSVA / WASTRES / AQYHRLPLS the result was 87 nM (3 of 3 replicates). Variant KSSQSVLYEIRNKRSVA / WASTRES / GQYHRLPLS showed 1.2 µM (1 of 3 replicates). With KSYQSVLYESRNKNSVA / QASTRES / FQYHRLPLS the result was 3.9 nM (3 of 3 replicates). For KSSQSVLYESRNKNSVA / WASTREQ / YQYHRLPLS, the assay gave nd (0 of 3 replicates). Variant ESSQSVLYESRNKNSVA / WASTRES / GQYHRCPLS showed 2.5 µM (3 of 3 replicates).

Variant KSPQSVKYESRNKNSVA / WASTRES / SQYHRLPLS showed 2.5 µM (1 of 3 replicates).

Top 3 of the variants detected in all replicates, tightest first:

| CDR-L1 | CDR-L2 | CDR-L3 | Kd | seen in |
|---|---|---|---|---|
| KSYQSVLYESRNKNSVA | QASTRES | FQYHRLPLS | 3.9 nM | 3 of 3 |
| KSSQSVLYESRNANSVA | WASTRES | EQYHRLPLM | 5.7 nM | 3 of 3 |
| KSSQQVLHESRNKNSVA | WASTRES | VQYHRLPLS | 19 nM | 3 of 3 |